SMILES strings stand for the structures. pIC50: −log10 of the molar value.

In the experiment the target is T1, IL-23R (Homo sapiens, UniProt Q5VWK5).
T1 construct: host or cells: HEK293
T1 sequence (Q5VWK5 24-629): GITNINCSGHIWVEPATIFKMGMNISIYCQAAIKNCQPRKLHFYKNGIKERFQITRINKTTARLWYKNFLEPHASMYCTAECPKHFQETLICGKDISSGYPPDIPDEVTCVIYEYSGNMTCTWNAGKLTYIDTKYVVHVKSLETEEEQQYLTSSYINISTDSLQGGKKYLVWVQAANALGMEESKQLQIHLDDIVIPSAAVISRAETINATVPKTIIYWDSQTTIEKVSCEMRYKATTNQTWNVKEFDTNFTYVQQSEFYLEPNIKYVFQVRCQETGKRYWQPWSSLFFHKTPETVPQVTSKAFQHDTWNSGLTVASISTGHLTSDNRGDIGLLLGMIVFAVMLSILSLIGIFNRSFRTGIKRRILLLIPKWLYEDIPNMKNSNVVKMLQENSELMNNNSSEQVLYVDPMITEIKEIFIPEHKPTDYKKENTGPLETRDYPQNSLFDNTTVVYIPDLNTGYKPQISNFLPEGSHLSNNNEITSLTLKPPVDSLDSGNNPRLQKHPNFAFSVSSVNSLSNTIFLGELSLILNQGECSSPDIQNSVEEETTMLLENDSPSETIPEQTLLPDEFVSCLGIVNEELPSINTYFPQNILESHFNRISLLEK
Kind of experiment: IL23R Reporter Assay. The format is cell-based. The conditions noted are these: HEK293 cells containing IL-23R, IL-12RP1 and STAT-inducible firefly luciferase reporter; 10 ng/mL IL-23 (EC90); 5 h at 37° C.; read-out: IL23R Reporter Assay. A general note: In a reporter assay the amount or activity of a reporter protein is the signal.
As for `CC(=O)N(C)CCCC[C@@H]1NC(=O)[C@H](Cc2c[nH]c3c(C)cccc23)NC(=O)[C@H]([C@@H](C)O)NC(=O)[C@H](CC(=O)N(C)C)NC(=O)[C@@H](NC(=O)CCOCCOCC[N+](C)(C)C)C(C)(C)SSC(C)(C)[C@@H](C(=O)N[C@@H](Cc2ccc(OCC[n+]3ccccc3)cc2)C(=O)N[C@@H](Cc2ccc3ccccc3c2)C(=O)NC2(C(=O)N[C@@H](CCCCN(C)C(C)=O)C(=O)N[C@@H](CC(N)=O)C(=O)N[C@@H](Cc3cccnc3)C(=O)N(C)CC(=O)N(C)C)CCOCC2)NC1=O` [compound 231, cPEG3aCO-Pen(3)-N(N(Me)2)-T-7MeW-K(NMeac)-Pen(3)-NPyEF-2Nal-THP-K(NMeAc)-N-3Pya-Sar-CON(Me)2], the pIC50 was 8.54.

As to `CC(=O)NCCCC[C@@H]1NC(=O)[C@H](Cc2c[nH]c3c(C)cccc23)NC(=O)[C@H]([C@@H](C)O)NC(=O)[C@H](CC(N)=O)NC(=O)[C@@H](NC(=O)[C@@H](CCCCNC(=O)CCCCC[N+](C)(C)C)NC(C)=O)C(C)(C)SSC(C)(C)[C@@H](C(=O)N[C@@H](Cc2ccc(OCCN)cc2)C(=O)N[C@@H](Cc2ccc3ccccc3c2)C(=O)NC2(C(=O)N[C@@H](CCC(=O)O)C(=O)N[C@@H](CC(N)=O)C(=O)N[C@@H](Cc3cccnc3)C(=O)N(C)CC(N)=O)CCOCC2)NC1=O` [compound 83], the pIC50 was 8.48. Take `CC(=O)N(C)CCCC[C@@H]1NC(=O)[C@H](Cc2c[nH]c3c(C)cccc23)NC(=O)[C@H]([C@@H](C)O)NC(=O)[C@H](CC(=O)N(C)C)NC(=O)[C@@H](NC(=O)CCOCCOCC[N+](C)(C)C)C(C)(C)SSC[C@@H](C(=O)N[C@@H](Cc2ccc(OCCCCC[N+](C)(C)C)cc2)C(=O)N[C@@H](Cc2ccc3ccccc3c2)C(=O)NC2(C(=O)N[C@@H](CCCCN(C)C(C)=O)C(=O)N[C@@H](CC(N)=O)C(=O)N[C@@H](Cc3cccnc3)C(=O)N(C)CC(=O)N(C)C)CCOCC2)NC1=O` [compound 485, cPEG3aCO-Pen(3)-N(N(Me)2)-T-7MeW-K(NMeAc)-C(3)-TMAPF-2Nal-THP-K(NMeAc)-N-3Pya-Sar-CON(Me)2]: the pIC50 was 8.44. `CC(=O)NCCCC[C@@H]1NC(=O)[C@H](Cc2c[nH]c3c(C)cccc23)NC(=O)[C@H]([C@@H](C)O)NC(=O)[C@H](CC(N)=O)NC(=O)[C@@H](NC(C)=O)C(C)(C)SSC(C)(C)[C@@H](C(=O)N[C@@H](Cc2ccc(-n3cc(CCCC[N+](C)(C)C)nn3)cc2)C(=O)N[C@@H](Cc2ccc3ccccc3c2)C(=O)NC2(C(=O)N[C@@H](CCC(=O)O)C(=O)N[C@@H](CC(N)=O)C(=O)N[C@@H](Cc3cccnc3)C(=O)N(C)CC(N)=O)CCOCC2)NC1=O` [compound 442]: the pIC50 is 8.54.

On to `CC(=O)N(C)CCCC[C@H](NC(=O)[C@H](Cc1c[nH]c2ccccc12)NC(=O)[C@H](Cc1ccc2ccccc2c1)NC(=O)[C@H](Cc1ccc(OCCOCCOCC[N+](C)(C)C)cc1)NC(=O)[C@H]1NC(=O)[C@H](Cc2c[nH]c3ccccc23)NC(=O)[C@H](Cc2c[nH]c3c(C)cccc23)NC(=O)[C@H]([C@@H](C)O)NC(=O)[C@H](Cc2c[nH]c3ccccc23)NC(=O)[C@@H](NC(=O)CCOCCOCC[N+](C)(C)C)C(C)(C)SSC1(C)C)C(=O)N[C@@H](CC(N)=O)C(=O)N[C@@H](Cc1cccnc1)C(=O)N(C)CC(=O)N(C)C` [compound 465, cPEG3aCO-Pen(3)-W-T-7MeW-W-Pen(3)-APEG3f-2Nal-W-K(NMeAc)-N-3Pya-Sar-CON(Me)2], for which the pIC50 was 7.77. Turning to `CC(=O)NCCCC[C@@H]1NC(=O)[C@H](Cc2c[nH]c3c(-c4cccc(NC(C)=O)c4)cccc23)NC(=O)[C@H]([C@@H](C)O)NC(=O)[C@H](CC(N)=O)NC(=O)[C@@H](NC(C)=O)C(C)(C)SSC(C)(C)[C@@H](C(=O)N[C@@H](Cc2ccc(OCCNC(=N)N)cc2)C(=O)N[C@@H](Cc2ccc3ccccc3c2)C(=O)NC2(C(=O)N[C@@H](CCCCN(C)C(C)=O)C(=O)N[C@@H](CC(N)=O)C(=O)N[C@@H](Cc3cncc(C)c3)C(=O)N(C)CC(N)=O)CCOCC2)NC1=O` [compound 482, MeCO-Pen(3)-N-T-7(3NAcPh)W-K(Ac)-Pen(3)-AEF(G)-2Nal-THP-K(NMeAc)-N-5MePyridinAla-Sar-CONH2], the pIC50 was 8.41. On to `CC(=O)NCCCC[C@@H]1NC(=O)[C@H](Cc2c[nH]c3c(C)cccc23)NC(=O)[C@H]([C@@H](C)O)NC(=O)[C@H](CC(N)=O)NC(=O)[C@@H](NC(=O)C(F)(F)F)C(C)(C)SSC(C)(C)[C@@H](C(=O)N[C@@H](Cc2ccc(OCCN)cc2)C(=O)N[C@@H](Cc2ccc3ccccc3c2)C(=O)NC2(C(=O)N[C@@H](CCCCNC(C)=O)C(=O)N[C@@H](CC(N)=O)C(=O)N[C@@H](Cc3cccnc3)C(=O)N(C)CC(=O)N(C)C)CCOCC2)NC1=O` [compound 74], for which the pIC50 is 8.62. On to `CC(=O)NCCCC[C@@H]1NC(=O)[C@H](Cc2c[nH]c3c(C)cccc23)NC(=O)[C@H]([C@@H](C)O)NC(=O)[C@H](CC(=O)N(C)C)NC(=O)[C@@H](NC(=O)CCOCCOCC[N+](C)(C)C)C(C)(C)SSC(C)(C)[C@@H](C(=O)N[C@@H](Cc2ccc(OCCOCCOCC[N+](C)(C)C)cc2)C(=O)N[C@@H](Cc2ccc3ccccc3c2)C(=O)NC2(C(=O)N[C@@H](CCCCN(C)C(C)=O)C(=O)N[C@@H](CC(N)=O)C(=O)N[C@@H](Cc3cccnc3)C(=O)N(C)CC(=O)N(C)C)CCOCC2)NC1=O` [compound 243, cPEG3aCO-Pen(3)-N(N(Me)2)-T-7MeW-K(Ac)-Pen(3)-APEG3F-2Nal-THP-K(NMeAc)-N-3Pya-Sar-CON(Me)2], for which the pIC50 was 8.41. The same measure for `CC(=O)N(C)CCCC[C@@H]1NC(=O)[C@H](Cc2c[nH]c3c(C)cccc23)NC(=O)[C@H]([C@@H](C)O)NC(=O)[C@H](CC(=O)N(C)C)NC(=O)[C@@H](NC(=O)CCOCCOCC[N+](C)(C)C)C(C)(C)SSC(C)(C)[C@@H](C(=O)N[C@@H](Cc2ccc(OCCN)cc2)C(=O)N[C@@H](Cc2ccc3ccccc3c2)C(=O)NC2(C(=O)N[C@@H](CCN(C)C(C)=O)C(=O)N[C@@H](CC(N)=O)C(=O)N[C@@H](Cc3cccnc3)C(=O)N(C)CC(=O)N(C)C)CCC(F)(F)C2)NC1=O` (single isomer, unassigned) [compound 180, cPEG3aCO-Pen(3)-N(N(Me)2)-T-7MeW-K(NMeAc)-Pen(3)-AEF-2Nal-diFCpx-Dab(NMeAc)-N-3Pya-Sar-CON(Me)2]: 8.54; for `CC(=O)NCCCC[C@@H]1NC(=O)[C@H](Cc2c[nH]c3c(C)cccc23)NC(=O)[C@H]([C@@H](C)O)NC(=O)[C@H](CC(N)=O)NC(=O)[C@@H](NC(=O)CCOCCOCC[N+](C)(C)C)C(C)(C)SSC(C)(C)[C@@H](C(=O)N[C@@H](Cc2ccc(OCCCCC[N+](C)(C)C)cc2)C(=O)N[C@@H](Cc2ccc3ccccc3c2)C(=O)NC2(C(=O)N[C@@H](C)C(=O)N[C@@H](CC(N)=O)C(=O)N[C@@H](Cc3cccnc3)C(=O)N(C)CC(=O)N(C)C)CCOCC2)NC1=O` [compound 317, cPEG3aCO-Pen(3)-N-T-7MeW-K(Ac)-Pen(3)-TMAPF-2Nal-THP-A-N-3Pya-Sar-CON(Me)2]: 8.89. As for `CC(=O)N[C@@H]1C(=O)N[C@@H](CC(=O)N(C)C)C(=O)N[C@@H]([C@@H](C)O)C(=O)N[C@@H](Cc2c[nH]c3c(C)cccc23)C(=O)N[C@@H](CCC(=O)N(C)C)C(=O)N[C@H](C(=O)N[C@@H](Cc2ccc(OCCN(C)C)cc2)C(=O)N[C@@H](Cc2ccc3ccccc3c2)C(=O)NC2(C(=O)N[C@@H](CCC(=O)O)C(=O)N[C@@H](CC(N)=O)C(=O)N[C@@H](Cc3cccnc3)C(=O)N(C)CC(=O)N(C)C)CCOCC2)C(C)(C)SSC1(C)C` [compound 120, MeCO-Pen(3)-N(N(Me)2)-T-7MeW-Q(N(Me)2)-Pen(3)-AEF(N(Me)2)-2Nal-THP-E-N-3Pya-Sar-CON(Me)2], the pIC50 was 8.64.

The values above are taken from US20260022143A1, “Cyclic Peptide Inhibitors of IL-23” (JANSSEN PHARMACEUTICA NV, priority 2022, published 2026).
